Experimental data reported in ChEMBL document CHEMBL1145889, “Potent and selective inhibitors of platelet-derived growth factor receptor phosphorylation. 3. Replacement of quinazoline moiety and improvement of metabolic polymorphism of 4-[4-(N-substituted (thio)carbamoyl)-1-piperazinyl]-6,7-dimethoxyquinazoline derivatives” (J Med Chem, 2003).

By UniProt entry, the sequences of proteins in these tests, tags left out.
UniProt P09619, whole entry: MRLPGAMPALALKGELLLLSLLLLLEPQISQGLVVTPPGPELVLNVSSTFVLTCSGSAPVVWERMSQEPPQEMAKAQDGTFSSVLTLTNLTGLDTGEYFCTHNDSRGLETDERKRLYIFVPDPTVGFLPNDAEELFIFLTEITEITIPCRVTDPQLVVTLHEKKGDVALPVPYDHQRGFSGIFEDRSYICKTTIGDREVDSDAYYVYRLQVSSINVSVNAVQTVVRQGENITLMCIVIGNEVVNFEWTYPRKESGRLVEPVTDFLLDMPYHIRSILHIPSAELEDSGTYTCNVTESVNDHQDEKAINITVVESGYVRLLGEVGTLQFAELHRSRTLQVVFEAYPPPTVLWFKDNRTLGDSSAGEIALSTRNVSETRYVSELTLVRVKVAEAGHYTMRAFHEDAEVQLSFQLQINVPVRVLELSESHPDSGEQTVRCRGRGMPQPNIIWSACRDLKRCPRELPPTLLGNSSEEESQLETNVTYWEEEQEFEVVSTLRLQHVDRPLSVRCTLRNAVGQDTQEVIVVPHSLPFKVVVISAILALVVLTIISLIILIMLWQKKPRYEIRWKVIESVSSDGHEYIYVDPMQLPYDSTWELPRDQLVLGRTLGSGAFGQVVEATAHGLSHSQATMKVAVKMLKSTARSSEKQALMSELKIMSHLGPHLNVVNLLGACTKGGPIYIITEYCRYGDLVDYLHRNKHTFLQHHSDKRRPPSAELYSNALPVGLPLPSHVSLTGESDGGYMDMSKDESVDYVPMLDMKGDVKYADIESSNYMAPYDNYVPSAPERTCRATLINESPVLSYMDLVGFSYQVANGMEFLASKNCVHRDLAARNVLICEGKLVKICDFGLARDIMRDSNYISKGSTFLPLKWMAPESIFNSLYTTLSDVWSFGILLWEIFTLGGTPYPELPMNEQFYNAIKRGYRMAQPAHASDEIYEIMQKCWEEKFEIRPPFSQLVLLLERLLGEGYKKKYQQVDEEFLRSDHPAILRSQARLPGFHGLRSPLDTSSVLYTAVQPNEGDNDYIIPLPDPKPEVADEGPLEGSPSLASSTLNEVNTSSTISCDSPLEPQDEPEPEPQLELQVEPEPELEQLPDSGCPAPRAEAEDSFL

target: Platelet-derived growth factor receptor beta (Homo sapiens, UniProt P09619); format: cell-based

| Structure (SMILES) | IC50 [µM] |
| --- | --- |
| O=C(Nc1ccc(Oc2ccccc2)cc1)N1CCN(c2ncnc3[nH]c(=O)[nH]c23)CC1 | > 10 |
| CCOC(=O)c1cnc2cc(OC)c(OC)cc2c1N1CCN(C(=S)NCc2ccccc2)CC1 | 3.26 |
| COc1cc2ncnc(N3CCN(C(=O)Nc4ccc(Cl)cc4)CC3)c2cc1OC | 1.1 |
| Cn1cnc2c(N3CCN(C(=O)Nc4ccc(Oc5ccccc5)cc4)CC3)ncnc21 | > 30 |
| COCCOc1cc2c(N3CCN(/C(S)=N\Cc4ccc5c(c4)OCO5)CC3)ncnc2cc1OC | 0.08 |
| S=C(NCc1ccccc1)N1CCN(c2ccnc3ccc(Cl)cc23)CC1 | > 30 |
| S=C(NCc1ccccc1)N1CCN(c2ccnc3cc(Cl)ccc23)CC1 | > 30 |
| CCOC(=O)c1cnc2cc(OC)c(OC)cc2c1N1CCN(C(=O)Nc2ccc(Oc3ccccc3)cc2)CC1 | 0.09 |
| CCOc1cc2c(N3CCN(/C(S)=N\Cc4ccccc4)CC3)ncnc2cc1OC | 0.62 |
| COc1cc2nc(Cl)nc(N3CCN(C(=O)Nc4ccc(Oc5ccccc5)cc4)CC3)c2cc1OC | > 30 |
| S=C(NCc1ccccc1)N1CCN(c2ncnc3cc4c(cc23)OCCO4)CC1 | > 30 |
| CCNc1cc2ncnc(N3CCN(/C(S)=N\Cc4ccccc4)CC3)c2cc1N | 1.44 |
| S=C(NCc1ccccc1)N1CCN(c2ncnc3ccccc23)CC1 | > 30 |
| COc1cc2c(N3CCN(C(=O)Nc4ccc(Oc5ccccc5)cc4)CC3)ncnc2c(OC)c1OC | > 30 |
| COc1cc2nc(C)nc(N3CCN(C(=O)Nc4ccc(Oc5ccccc5)cc4)CC3)c2cc1OC | > 30 |
| CCn1c(=O)n(C)c2cc3c(N4CCN(C(=O)Nc5ccc(Oc6ccccc6)cc5)CC4)ncnc3cc21 | 0.33 |
| CCn1cnc2cc3c(N4CCN(C(=S)NCc5ccccc5)CC4)ncnc3cc21 | 2.7 |
| S=C(NCc1ccccc1)N1CCN(c2ncnc3cc4c(cc23)OCO4)CC1 | > 30 |

| Structure (SMILES) | IC50 [µM] |
| --- | --- |
| S=C(NCc1ccccc1)N1CCN(c2ccnc3ccccc23)CC1 | > 30 |
| O=C(Nc1ccc(Oc2ccccc2)cc1)N1CCN(c2ncnc3nc[nH]c23)CC1 | 0.49 |
| CCCn1c(=O)n(CCC)c2cc3c(N4CCN(C(=O)Nc5ccc(Oc6ccccc6)cc5)CC4)ncnc3cc21 | 21 |
| CCOc1cc2ncnc(N3CCN(/C(S)=N\Cc4ccccc4)CC3)c2cc1OC | 0.15 |
| COc1cc2c(N3CCN(C(=S)NCc4ccccc4)CC3)ncnc2cc1C | 1.54 |
| CCNc1cc2ncnc(N3CCN(C(=O)Nc4ccc(Oc5ccccc5)cc4)CC3)c2cc1[N+](=O)[O-] | 0.2 |
| CCn1c(=O)n(CC)c2cc3c(N4CCN(C(=O)Nc5ccc(Oc6ccccc6)cc5)CC4)ncnc3cc21 | 0.78 |
| COc1cc2ncnc(N3CCN(C(=S)NCc4ccccc4)CC3)c2cc1OS(C)(=O)=O | 10.2 |
| CCNc1cc2ncnc(N3CCN(C(=S)NCc4ccccc4)CC3)c2cc1[N+](=O)[O-] | > 30 |
| COc1cc2nc(N3CCOCC3)nc(N3CCN(C(=O)Nc4ccc(Oc5ccccc5)cc4)CC3)c2cc1OC | > 30 |
| COCCOc1cc2ncnc(N3CCN(/C(S)=N\Cc4ccc5c(c4)OCO5)CC3)c2cc1OC | 0.08 |
| S=C(NCc1ccccc1)N1CCN(c2ncnc3cc4ccccc4cc23)CC1 | 1.3 |
| CCOc1cc2ncnc(N3CCN(C(=S)NCc4ccccc4)CC3)c2cc1OCC | 0.31 |
| CCn1c(=O)n(C)c2cc3c(N4CCN(C(=S)NCc5ccccc5)CC4)ncnc3cc21 | 0.14 |
| CCCCn1c(=O)n(CCCC)c2cc3c(N4CCN(C(=O)Nc5ccc(Oc6ccccc6)cc5)CC4)ncnc3cc21 | > 30 |
| S=C(NCc1ccccc1)N1CCN(c2ncnc3nc[nH]c23)CC1 | > 30 |
| Nc1nc(N2CCN(C(=O)Nc3ccc(Oc4ccccc4)cc3)CC2)c2[nH]cnc2n1 | 1.5 |

The remaining lines, values ahead:

| IC50 [µM] | Structure (SMILES) |
| --- | --- |
| 0.07 | O=C(Nc1ccc(Oc2ccccc2)cc1)N1CCN(c2ncnc3cc4c(cc23)OCCO4)CC1 |
| > 30 | COc1ccc2c(N3CCN(C(=O)Nc4ccc(Oc5ccccc5)cc4)CC3)ncnc2c1OC |
| 10.3 | O=C(Nc1ccc(Oc2ccccc2)cc1)N1CCN(c2nncc3ccccc23)CC1 |
| > 30 | COc1cc2cncc(N3CCN(C(=O)Nc4ccc(Oc5ccccc5)cc4)CC3)c2cc1OC |
| > 30 | O=C(Nc1ccc(Oc2ccccc2)cc1)N1CCN(c2nnc(Cc3ccccc3)c3ccccc23)CC1 |
| > 30 | O=C(Nc1ccc(Oc2ccccc2)cc1)N1CCN(c2ncnc3ncccc23)CC1 |
| 0.17 | O=C(Nc1ccc(Oc2ccccc2)cc1)N1CCN(c2ncnc3n[nH]cc23)CC1 |
| 0.55 | O=C(Nc1ccc(Oc2ccccc2)cc1)N1CCN(c2ccnc3cc(C(F)(F)F)ccc23)CC1 |
| 0.09 | O=C(Nc1ccc(Oc2ccccc2)cc1)N1CCN(c2ncnc3cc4c(cc23)OCO4)CC1 |
| 0.18 | COc1cc2nccc(N3CCN(C(=O)Nc4ccc(Oc5ccccc5)cc4)CC3)c2cc1OC |
| 0.13 | O=C(Nc1ccc(Oc2ccccc2)cc1)N1CCN(c2ccnc3ccc(Cl)cc23)CC1 |
| > 30 | O=C(Nc1ccc(Oc2ccccc2)cc1)N1CCN(c2cc(C(F)(F)F)nc3ccccc23)CC1 |
| 0.1 | O=C(Nc1ccc(Oc2ccccc2)cc1)N1CCN(c2ccnc3cc(Cl)ccc23)CC1 |
| 0.1 | Cn1c(=O)n(C)c2cc3c(N4CCN(C(=O)Nc5ccc(Oc6ccccc6)cc5)CC4)ncnc3cc21 |
| 0.29 | CCn1nnc2cc3c(N4CCN(C(=O)Nc5ccc(Oc6ccccc6)cc5)CC4)ncnc3cc21 |
| > 30 | Cn1ncc2c(N3CCN(C(=O)Nc4ccc(Oc5ccccc5)cc4)CC3)ncnc21 |
| > 30 | CCn1c(=O)[nH]c2cc3c(N4CCN(C(=O)Nc5ccc(Oc6ccccc6)cc5)CC4)ncnc3cc21 |
| > 30 | O=C(Nc1ccc(Oc2ccccc2)cc1)N1CCN(c2cncc3ccccc23)CC1 |
| 13.3 | O=C(Nc1ccc(Oc2ccccc2)cc1)N1CCN(c2ncnc3cnc(F)cc23)CC1 |
| > 10 | O=C(Nc1ccc(Oc2ccccc2)cc1)N1CCN(c2ccnc3c(Cl)cccc23)CC1 |
| 0.38 | O=C(Nc1ccc(Oc2ccccc2)cc1)N1CCN(c2ncnc3ccccc23)CC1 |
| > 30 | O=C(Nc1ccc(Oc2ccccc2)cc1)N1CCN(c2nnc(Cl)c3ccccc23)CC1 |
| 10.9 | COc1cc(OC)c2ncnc(N3CCN(C(=O)Nc4ccc(Oc5ccccc5)cc4)CC3)c2c1 |
| 0.81 | COc1cc2nncc(N3CCN(C(=O)Nc4ccc(Oc5ccccc5)cc4)CC3)c2cc1OC |
| 0.39 | O=C(Nc1ccc(Oc2ccccc2)cc1)N1CCN(c2ncnc3cc4ccccc4cc23)CC1 |
| 0.27 | O=C(Nc1ccc(Oc2ccccc2)cc1)N1CCN(c2ccnc3ccccc23)CC1 |
